Source: ChEMBL document CHEMBL2375290, “Nonclassical antifolates, part 3: synthesis, biological evaluation and molecular modeling study of some new 2-heteroarylthio-quinazolin-4-ones” (Eur J Med Chem, 2013)

Test system: Escherichia coli

Sequence: GENTAMICIN
- MIC: 0.5 µg/mL
